Data published in US8741932B2, “Imidazopyridine derivatives” (Piramal Enterprises Limited, priority 2009, dated 2014).

What was measured:
MDA MB 231 = test: Cytotoxicity assay (propidium iodide), MDA MB 231; format: cell-based; settings: MDA MB 231 (C6a, breast); 48 hours
A549 = test: Cytotoxicity assay (propidium iodide), A549; format: cell-based; settings: A549 (C1a, lung); 48 hours
A2780 = test: Cytotoxicity assay (propidium iodide), A2780; format: cell-based; settings: A2780 (C3a, ovarian); 48 hours
H460 = test: Cytotoxicity assay (propidium iodide), H460; format: cell-based; settings: H460 (C1b, lung); 48 hours
HT29 = test: Cytotoxicity assay (propidium iodide), HT29; format: cell-based; settings: HT29 (C4a, colon); 48 hours

Measured: IC50

N-methyl-1-phenyl-N′-((6-pyridin-3-yl) imidazo[1,2-a]pyridine-3-yl) methylene)benzenesulfonohydrazide [Example 28]
> 5 µM: MDA MB 231 | A549 | A2780 | H460 | HT29 | PC3
